Test results reported in patent publication US5770178A, “Metal chelate forming peptides and use thereof” (Nihon Medi-Physics Co., Ltd., priority 1994, dated 1998).

Details: Tc-99m-labeled peptide

Substance	Radioactivity peaks in HPLC profile (structural stability and labeling purity)
Ac-KYCAREPPTRTFAYWGQG-NH2	two radioactivity peaks
KYCAREPPTRTFAYWGQG-NH2	a single radioactivity peak
